We go through two molecules from patent US20250188143A1, “COMBINED GENE AND RADIO THERAPY FOR THE TREATMENT OF CANCER” (FUNDACION PARA LA INVESTIGACION MEDICA APLICADA, priority 2022, published 2025).

For data set [1], the system named is melanoma and renal cancer. As to conditions: in vivo; cited from earlier work.
A further data set concerns B16 cells. Nature of the data set: Radiation and IFN signaling on activation of the ISREx4 promoter (luciferase). In kind it is cell-based, murine. The note with it: B16 cells transduced with AAV8-ISREx4-LucmiR122T. The procedure: To this end, B16 cells received 8 Gy or 0 Gy as described above and then were transduced with AAV8-ISREx4-LucmiR122T (1×10^5 viral genomes/cell) and 48 h later 1,000 IU of either IFN-α, IFN-β or IFN-γ were added to the culture and luciferase activity was measured 48 h later as described above.

Regarding “IL-2: cytokine interleukin-2 used in immunotherapies for melanoma and renal cancer”, in data set [1], the side effects entry is recorded as “severe side effects are common”.

B1: IFN-β: exogenously added interferon, 1,000 IU (protein, UniProt P01574 22-187, looked up)
Interferon beta: MSYNLLGFLQRSSNFQCQKLLWQLNGRLEYCLKDRMNFDIPEEIKQLQQFQKEDAALTIYEMLQNIFAIFRQDSSSTGWNETIVENLLANVYHQINHLKTVLEEKLEKEDFTRGKLMSSLHLKRYYGRILHYLKAKEYSHCAWTIVRVEILRNFYFINRLTGYLRN
For the molecule B1, the luciferase activity entry in the data set on B16 cells (1,000 IU interferon alone (0 Gy)) is given as “significantly increased luciferase activity”; with B16 cells (interferon together with radiation 8 Gy), “induced luciferase activity dramatically”.
